Data as given in patent US11110171B2, “PD-1 related cancer therapy” (New York University, priority 2017, dated 2021).

Molecular target: SHP2 (Homo sapiens, UniProt Q06124)
Assay: Anti-phosphotyrosine (4G10) immunoblot of SHP099-treated Jurkat T cells after affinity purification with His-tagged SAP
Format: cell-based
Details: SHP099 10 uM
Procedure: FIG. 4. SAP inhibits SHP2 activity. (a) Jurkat T cells stably transfected with shRNA for SAP (SAP KD), SHP2 (SHP2 KD) and non-targeting control (Control) were treated for one hour with SHP099 (10 uM), followed by stimulation with magnetic beads coated with anti-CD3, or anti-CD3+PDL2 for 5 minutes. At this time, the cells were harvested, and analyzed by immunoblotting, as indicated. (b) Jurkat T cells, transfected with siRNA for SAP (SAP KD) and non-targeting control (Control), were treated with pervanadate to induce maximal phosphorylation, followed by five serial washes, lysis and diafiltration to remove the drug and to exchange the buffer to a phosphatase-compatible buffer. […] (e-g) Enzymatic activity of SHP2^PTP was measured using a Malachite Green assay, with p60-SRC (e), SLAMF5 Y279 (f), CD3 Y142 (g), CD28 Y172 (h), and CD28 Y190 (i) peptides as substrates. […]
First, SAP could bind SHP2 and directly block the SHP2 catalytic site, or alternatively, SAP might not bind to SHP2, but rather could bind to its substrates and thereby block the interaction between SHP2 and its enzymatic substrates. […] To test the effect of SAP on SHP2 mediated dephosphorylation events, we measured SHP2-mediated dephosphorylation of p60-SRC Y416 (FIG. 4e), SLAMF5 Y279 (FIG. 4f), and CD3 Y142 (FIG. 4g) phosphotyrosyl peptides by Malachite Green assays. […]

`CC1(N)CCN(c2cnc(-c3cccc(Cl)c3Cl)c(N)n2)CC1.Cl` [SHP099] was tested. Which “levels of select tyrosine phosphorylated proteins (detected by 4G10 antibody)” value did it give?
Its value is “increase”.
